The record followed here is patent US7786122B2.

The target of the first experiment is T1, γ-secretase (Homo sapiens, UniProt P49768). Nature of the experiment: In vitro binding assay to identify γ-secretase inhibitors ([3H]-Compound A competition, THP-1 cell membranes). Particulars: read-out: ACTIVITY RATING (activity based on IC50 values). An excerpt: In Vitro Binding Assay to Identify γ-Secretase Inhibitors.
Competitive binding assays can be used to identify molecules that inhibit the binding of a radiolabeled γ-secretase inhibitor and therefore inhibit γ-secretase activity. For example, [^3H]-Compound A can be used for binding assays with membranes from THP-1 cells (Seiffert, D.; Bradley, J. et al., J. Biol. Chem. 2000, 275, 34086-34091). Compound A is (2R,3S) N1-[(3S)-hexahydro-1-(3-phenoxybenzyl)-2-oxo-1H-azepin-3-yl]-2-(2-methylpropyl)-3-(propyl)-butanediamide, the synthesis of which is described in U.S. Pat. No. 6,331,408 (Dec. 18, 2001); PCT Publication WO 00/28331; PCT Publication WO 00/07995; and Seiffert, D., Bradley, J. et al., J. Biol. Chem. 2000, 275. 34086-34091.
For these assays, THP-1 cells were grown in spinner cultures in RPMI 1640 containing L-glutamine and 10 μM β-mercaptoethanol to a density of 5×10^5 cells/ml. Cells were harvested by centrifugation and cell pellets were quick frozen in dry ice/ethanol and stored at −70° C. prior to use. The pellets of approximately 2×10^4 THP-1 cells were homogenized using a Brinkman Polytron at setting 6 for 10 sec. […] Filter-bound radioactivity was measured by scintillation counting. IC50 values were then determined and used to calculate Ki values using the Cheng-Prusoft correction for IC50 values. […]
For the compound `CN1CCN(CCOc2ccc(CN(C(CCC(F)(F)F)C(N)=O)S(=O)(=O)c3ccc(Cl)cc3)cc2F)CC1` (single isomer, unassigned), the half-inhibitory concentration (IC50) is 500 to 10000 nM.

Consider `CN1CCN(Cc2ccc(CN(C(CCC(F)(F)F)C(N)=O)S(=O)(=O)c3ccc(Cl)cc3)cc2)CC1` (stereo not drawn), for which the IC50 is 50 to 500 nM.

A further experiment concerns the target T1, γ-secretase. As to the kind of experiment: In vitro assay based on the inhibition of Aβ formation from membrane preparations. Particulars: read-out: ACTIVITY RATING (activity based on IC50 values). The text has this: In Vitro Assay to Identify γ-Secretase Inhibitor Based on the Inhibition of Aβ Formation from Membrane Preparations.
An isolated membrane fraction which contains functionally active γ-secretase and β-APP substrates can generate γ-secretase cleavage products including Aβ (Roberts, S. B.; Hendrick, J. P.; Vinitsky, A.; Lewis, M.; Smith, D. W.; Pak, R. PCT Publication WO 01/0175435; Fechteler, K.; Kostka, M.; Fuchs, M. Patent Application No. DE 99-19941039; Shearman, M.; Beher, D. et al., Biochemistry, 2000, 39, 8698-8704; Zhang, L. Song, L. et al., Biochemistry 2001, 40, 5049-5055). An isolated membrane fraction can be prepared from human derived cell lines such as HeLa and H4 which have been transfected with wild type or mutant forms of β-APP or a human alkaline phosphatase β-APP fusion construct, and stably express high levels of γ-secretase substrates. The endogenous γ-secretase present in the isolated membranes prepared at 0-4° C. cleaves the β-APP substrates when the membranes are shifted from 0-4 to 37° C. […] The Aβ present in a homogeneous sample containing membranes can be detected by time-resolved fluorescence with two antibodies that recognize different epitopes of Aβ. One of the antibodies recognizes an epitope that is present in Aβ but not present in the precursor fragments; preferably the antibody binds the carboxyl terminus of Aβ generated by the γ-secretase cleavage. The second antibody binds to any other epitope present on Aβ. For example, antibodies that bind the N-terminal region (e.g., 26D6-B2-B3® SIBIA Neurosciences, La Jolla, Calif.) or bind the C-terminal end (e.g., 9S3.2® antibody, Biosolutions, Newark, Del.) of the Aβ peptide are known. The antibodies are labeled with a pair of fluorescent adducts that transfer fluorescent energy when the adducts are brought in close proximity as a result of binding to the N- and C-terminal ends or regions of Aβ. A lack of fluorescence is indicative of the absence of cleavage products, resulting from inhibition of γ-secretase. The isolated membrane assay can be used to identify candidate agents that inhibit the activity of γ-secretase cleavage and Aβ production.
A typical membrane-based assay requires 45 μg membrane protein per well in a 96- or 384-well format. Membranes in a neutral buffer are combined with the test compound and shifted from 0-4 to 37° C. Test agents may typically consist of synthetic compounds, secondary metabolites from bacterial or fungal fermentation extracts, or extracts from plant or marine samples. All synthetic agents are initially screened at doses ranging from 10-100 μM or in the case of extracts at sufficient dilution to minimize cytotoxicity. Incubation of the membranes with the test agent will continue for approximately 90 minutes at which time fluorescence labeled antibodies are added to each well for Aβ quantitation. The time-resolved fluorescence detection and quantitation of Aβ is described elsewhere (Roberts, S. B.; Hendrick, J. P.; Vinitsky, A.; Lewis, M.; Smith, D. W.; Pak, R. PCT Publication WO 01/0175435; Shearman, M.; Beher, D. et al., Biochemistry, 2000. 39, 8698-8704). Results are obtained by analysis of the plate in a fluorescence plate reader and comparison to the mock treated membranes and samples in which known amounts of Aβ were added to construct a standard concentration curve. A positive acting compound is one that inhibits the Aβ relative to the control sample by at least 50% at the initial tested concentration. If a compound is found to be active then a dose response experiment is preformed to determine the lowest dose of compound necessary to elicit the inhibition of the production of Aβ.
In the table, an inhibitory concentration (IC50) of less than or equal to 50 nM is represented by +++; between 50 nM and 500 nM by ++; between 500 nM and 10000 nM by +.
Consider `CC(C)CC(C(N)=O)N(Cc1ccc(Cl)c(Cl)c1)S(=O)(=O)c1ccc(Cl)cc1` (stereo not drawn), for which the IC50 is less than 50 nM.

For the compound `CC(C)CC(C(N)=O)N(Cc1ccccc1)S(=O)(=O)c1ccc(Cl)cc1` (stereo not drawn), the IC50 was less than 50 nM.

Take `CCCC(C(N)=O)N(Cc1ccc(C(F)(F)F)cc1)S(=O)(=O)c1ccc(Cl)cc1` (stereo not drawn): the IC50 is less than 50 nM.

Consider `CC(C)CC(C(N)=O)N(Cc1cccc(F)c1)S(=O)(=O)c1ccc(Cl)cc1` (stereo not drawn), for which the 50% inhibitory concentration (IC50) was less than 50 nM.

Consider `CC(C)CC(C(N)=O)N(CCCc1ccccc1)S(=O)(=O)c1ccc(Cl)cc1` (stereo not drawn), for which the IC50 was less than 50 nM.

As for `CC(C)CC(C(N)=O)N(Cc1ccc(C(C)(C)C)cc1)S(=O)(=O)c1ccc(Cl)cc1` (stereo not drawn), the IC50 is less than 50 nM.

As to `COc1ccc(CN(C(CC(C)C)C(N)=O)S(=O)(=O)c2ccc(C)cc2)cc1F` (stereo not drawn), the IC50 was less than 50 nM.

As to `COc1ccc(CN(C(CC(C)C)C(N)=O)S(=O)(=O)c2cccc(Cl)c2)cc1F` (stereo not drawn), the IC50 lay within 50 to 500 nM.

In the case of `COc1cccc(CN(C(CC(C)C)C(N)=O)S(=O)(=O)c2ccc(Cl)cc2)c1` (stereo not drawn), the IC50 was less than 50 nM.

Consider `CC(C)CC(C(N)=O)N(Cc1ccc(Cl)cc1)S(=O)(=O)c1ccc(Cl)cc1` (stereo not drawn), for which the IC50 was less than 50 nM.

In the case of `COc1ccc(CN(C(CC(C)C)C(N)=O)S(=O)(=O)c2cccc(C(F)(F)F)c2)cc1F` (stereo not drawn), the IC50 fell in the range of 50 to 500 nM.

For `CC(C)CC(C(N)=O)N(Cc1ccc(F)cc1)S(=O)(=O)c1ccc(Cl)cc1` (stereo not drawn), the IC50 was less than 50 nM.

Consider `COc1ccc(CN(C(CC(C)C)C(N)=O)S(=O)(=O)c2ccc(C(F)(F)F)cc2)cc1F` (stereo not drawn), for which the IC50 is less than 50 nM.

Consider `CC(C)CC(C(N)=O)N(Cc1ccc(O)cc1)S(=O)(=O)c1ccc(Cl)cc1` (stereo not drawn), for which the IC50 is less than 50 nM.

Turning to `CC(C)CC(C(N)=O)N(Cc1ccc(C(F)(F)F)cc1)S(=O)(=O)c1ccc(Cl)cc1` (stereo not drawn), the IC50 is less than 50 nM.

The next experiment addresses T1, γ-secretase. Nature of the experiment: In vitro assay based on the inhibition of Aβ formation in cultured cells (H4 cells overexpressing HPLAP-APP fusion protein). The conditions noted are these: read-out: ACTIVITY RATING (activity based on IC50 values), 18 hrs incubation.
Consider `CN1CCN(CCOc2ccc(CN(C(CCC(F)(F)F)C(N)=O)S(=O)(=O)c3ccc(Cl)cc3)cc2F)CC1` (single isomer, unassigned), for which the IC50 lay within 500 to 10000 nM.

In the case of `CC(C)C[C@H](C(N)=O)N(Cc1ccc(C(C)(C)F)cc1)S(=O)(=O)c1ccc(Cl)cc1`, the IC50 was less than 50 nM.

Regarding `CC(C)C[C@H](C(N)=O)N(Cc1ccccc1C(F)(F)F)S(=O)(=O)c1ccc(Cl)cc1`, the IC50 fell in the range of 50 to 500 nM.

Regarding `CC(C)CC(C(N)=O)N(CC1CCN(C(=O)Nc2ccc(C(F)(F)F)cc2)CC1)S(=O)(=O)c1ccc(Cl)cc1` (stereo not drawn), the IC50 was less than 50 nM.

In the case of `CC(C)CC(C(N)=O)N(CCCc1ccccc1)S(=O)(=O)c1ccc(Cl)cc1` (stereo not drawn), the IC50 is less than 50 nM.

Consider `COc1ccc(CN(C(CC(C)C)C(N)=O)S(=O)(=O)c2cccc(Cl)c2)cc1F` (stereo not drawn), for which the IC50 was in the range of 50 to 500 nM.

Staying with this experiment, now noted: read-out: ACTIVITY RATING (activity based on IC50 values), 18 hrs incubation, tested form: trifluoroacetate (NMR given for the TFA).
On to `CC(C)CC(C(N)=O)N(Cc1ccc(N2CCCC2)nc1)S(=O)(=O)c1ccc(Cl)cc1` (stereo not drawn), for which the concentration for half-maximal inhibition (IC50) fell in the range of 50 to 500 nM.

As a reminder, the IC50 is the point on the concentration scale where inhibition reaches its midpoint.
